The entries are a selection whose mix differs from that of the whole data set. Some tests of the compounds listed are not included; inactive here does not mean inactive elsewhere. Activity calls are given as the source filed them. Cut-off read from the data, not from the text of the source: active = inhibition above about 36%; inactive = the rest.
target: Serine protease HTRA1 (Homo sapiens) (UniProt Q92743); test: inhibition of human HTRA1 peptidase – biochemical, fluorescence polarization, HTS, primary screen (AID 504803); conditions: recombinant HTRA1, FP-rhodamine activity-based probe, at 5.96 µM, stronger effect = higher value;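 note: 0% = enzyme with DMSO and 100% = wells lacking enzyme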

The chains behind the UniProt entries cited, without tags or fusion partners.
UniProt Q92743, whole entry: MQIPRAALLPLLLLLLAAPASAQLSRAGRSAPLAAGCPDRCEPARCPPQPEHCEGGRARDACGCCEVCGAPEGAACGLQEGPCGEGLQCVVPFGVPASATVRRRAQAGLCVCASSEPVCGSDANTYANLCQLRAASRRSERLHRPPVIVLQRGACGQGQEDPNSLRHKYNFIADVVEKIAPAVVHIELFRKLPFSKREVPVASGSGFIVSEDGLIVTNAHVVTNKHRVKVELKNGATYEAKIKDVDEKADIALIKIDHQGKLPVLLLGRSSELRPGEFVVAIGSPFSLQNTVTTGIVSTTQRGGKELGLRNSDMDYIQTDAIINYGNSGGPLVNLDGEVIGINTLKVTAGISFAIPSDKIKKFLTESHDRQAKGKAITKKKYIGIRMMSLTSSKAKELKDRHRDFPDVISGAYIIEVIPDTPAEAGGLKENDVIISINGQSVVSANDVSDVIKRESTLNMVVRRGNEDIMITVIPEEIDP

Compound	inhibition
CN1[C@@H]2CC[C@H]1CC(OC(=O)C(O)(c1ccccc1)c1ccccc1)C2 (stereo partly specified)	inactive: 5.84%
O=C(NCC1(N2CCCCC2)CCCCC1)c1cc([N+](=O)[O-])ccc1Cl	inactive: 5.02%
Cc1ccc(C(=O)NCC2(N3CCCCC3)CCCCC2)cc1	inactive: -2.32%
COc1cc(SC)ccc1C(=O)NCC1(N(C)C)CCCCC1	inactive: 6.89%
CCN(CC)CC(C)C(C)OC(=O)C(O)(c1ccccc1)c1ccccc1 (stereo unspecified)	inactive: -2.25%
CC(C)N1C(=O)CC2(CCN(CCOC(=O)C(O)(c3ccccc3)c3ccccc3)CC2)C1=O	inactive: -3.28%
CN(C)C1CCCC1OC(=O)C(O)(c1ccccc1)c1ccccc1 (stereo unspecified)	inactive: 13.2%
CN(C)c1ccc(C(=O)NCC2(N(C)C)CCCCC2)cc1	inactive: 1.54%
Cc1ccccc1C(=O)NCC1(N2CCCCC2)CCCCC1	inactive: 7.4%
COc1ccc(C(=O)NCC2(N(C)C)CCCCC2)cc1	inactive: 6.74%
O=C(NCC1(N2CCCCC2)CCCCC1)c1cccc(Br)c1	inactive: -2.28%
Cc1cc(C(=O)NCC2(N3CCCCC3)CCCCC2)ccc1[N+](=O)[O-]	inactive: 4.52%
CCN1CCCC(OC(=O)C2(O)c3ccccc3C=Cc3ccccc32)C1 (stereo unspecified)	inactive: -1%
O=C(NCC1(N2CCCCC2)CCCCC1)c1cc(F)c(F)cc1Cl	inactive: -3.79%
C=CCN1CCN(CCOC(=O)C(O)(c2ccccc2)c2ccccc2)CC1	inactive: -1.21%
COc1cc(C(=O)NCC2(N(C)C)CCCCC2)c([N+](=O)[O-])cc1OC	inactive: -4.35%
CN(C)C1(CNC(=O)c2ccc(Br)cc2)CCCCC1	inactive: 7.13%
O=C(NCC1(N2CCCCC2)CCCCC1)c1cccc(Cl)c1	inactive: -2.01%
COc1ccc(Cl)cc1C(=O)NCC1(N(C)C)CCCCC1	inactive: 5.15%
COc1cccc(C(=O)NCC2(N3CCCCC3)CCCCC2)c1	inactive: 7.56%
O=C(OC1CN2CCC1CC2)C(CO)(c1ccccc1)c1ccccc1 (stereo unspecified)	inactive: -1.89%
O=C(OCCN1CCCC1)C(O)(c1ccccc1)c1ccccc1	inactive: 0.09%
CC(C)Oc1ccc(C(=O)NCC2(N(C)C)CCCCC2)cc1	inactive: 8.02%
CN(C)c1cccc(C(=O)NCC2(N(C)C)CCCCC2)c1	inactive: 5.82%
C=C(C)C#CC(O)(C(=O)OC1CCN(C)CC1)c1ccccc1 (stereo unspecified)	inactive: 9.88%
COc1ccc(Br)c(C(=O)NCC2(N3CCCCC3)CCCCC2)c1	inactive: 0.96%
